These results are taken from US20140287990A1 (published 2014).

One assay addresses T1, CD4.
T1 construct: Bought protein; Used both immobilised on CM5 and as eluent
Description: SPR, CD4 immobilised on CM5 (CD4-CM5), equilibrium response fitted to Req=Rmax/(1+(Kd/C)). In general terms: SPR reads the build-up and loss of mass on a sensor chip optically.

In assay [1] the target is T2, DC-SIGN (DC-specific intercellular adhesion molecule 3-grabbing nonintegrin) (UniProt Q9NNX6 62-404, limits assumed).
T2 construct: Immobilised on a CM5 sensor chip
T2 sequence (looked up): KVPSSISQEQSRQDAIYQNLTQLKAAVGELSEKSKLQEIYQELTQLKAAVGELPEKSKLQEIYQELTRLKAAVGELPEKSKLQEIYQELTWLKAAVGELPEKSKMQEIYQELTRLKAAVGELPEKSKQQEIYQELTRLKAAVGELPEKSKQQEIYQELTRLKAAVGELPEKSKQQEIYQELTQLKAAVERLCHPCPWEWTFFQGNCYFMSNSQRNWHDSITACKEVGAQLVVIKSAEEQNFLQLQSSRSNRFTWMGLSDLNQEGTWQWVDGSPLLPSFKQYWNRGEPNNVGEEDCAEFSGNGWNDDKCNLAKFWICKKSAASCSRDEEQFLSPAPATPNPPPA
As to the kind of experiment: SPR, DC-SIGN immobilised on CM5, equilibrium response fitted to Req=Rmax/(1+(Kd/C)).

B1: GST-Azu 36-128 (GST fused in frame to azurin amino acids 36 to 128) (other)
chain: MSPILGYWKIKGLVQPTRLLLEYLEEKYEEHLYERDEGDKWRNKKFELGLEFPNLPYYIDGDVKLTQSMAIIRYIADKHNMLGGCPKERAEISMLEGAVLDIRYGVSRIAYSKDFETLKVDFLSKLPEMLKMFEDRLCHKTYLNGDHVTHPDFMLYDALDVVLYMDPMCLDAFPKLVCFKKRIEAIPQIDKYLKSSKYIAWPLQGWQATFGGGDHPPKPGNLPKNVMGHNWVLSTAADMQGVVTDGMASGLDKDYLKPDDSRVIAHTKLIGSGEKDSVTFDVSKLKEGEQYMFFCTFPGHSALMKGTLTLK
notes: Azurin fragment cloned into the BamHI and EcoRI sites of pGEX-5X
B1: binding in the assay with CD4 was characterised by a dissociation constant (Kd) of 0.34 nM.

B2: GST-Azu 88-113 (GST fused in frame to azurin amino acids 88 to 113) (other)
chain: MSPILGYWKIKGLVQPTRLLLEYLEEKYEEHLYERDEGDKWRNKKFELGLEFPNLPYYIDGDVKLTQSMAIIRYIADKHNMLGGCPKERAEISMLEGAVLDIRYGVSRIAYSKDFETLKVDFLSKLPEMLKMFEDRLCHKTYLNGDHVTHPDFMLYDALDVVLYMDPMCLDAFPKLVCFKKRIEAIPQIDKYLKSSKYIAWPLQGWQATFGGGDHPPKGSGEKDSVTFDVSKLKEGEQYMFFCT
Consider B2, for which the Kd (commonly the constant that tells how readily two partners part at equilibrium) in assay [1] worked out at 5.98 nM.
